Results reported in US20250129135A1, “Multi-Agonist and Use Thereof” (priority 2021, published 2025).

Columns and labels:
3T3-L1 adipocytes = system: 3T3-L1 adipocytes
Procedure, shortened: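 Compound-induced cAMP was measured in mature 3T3-L1 adipocytes after 60 min room-temperature exposure to a 10-concentration, 3-fold dilution series, followed by 60 min with kit detection reagent and curve fitting. Differentiation used IBMX/dexamethasone/insulin (5 days), insulin with 10 uM rosiglitazone (3 days), then 2–3 days in 10% FBS.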

RIN-m5F cells = type: cell-based, rat
Procedure, shortened: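 After 60 min room-temperature exposure of HBSS-suspended RIN-m5F cells to compound and another 60 min with detection reagent, cellular cAMP level was determined.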

**Q.** Which results are given for `CC[C@H](C)[C@H](NC(=O)[C@H](Cc1ccccc1)NC(=O)[C@H](C)NC(=O)C(C)(C)NC(=O)[C@H](CCC(N)=O)NC(=O)[C@H](C)NC(=O)[C@H](CCCCNC(=O)COCCOCCNC(=O)COCCOCCNC(=O)CC[C@H](NC(=O)CCCCCCCCCCCCCCCCCCC(=O)O)C(=O)O)NC(=O)[C@H](CCCCN)NC(=O)[C@H](CC(=O)O)NC(=O)[C@H](CC(C)C)NC(=O)[C@H](Cc1ccccc1)NC(=O)[C@@H](NC(=O)[C@H](CO)NC(=O)[C@H](Cc1ccc(O)cc1)NC(=O)[C@H](CC(=O)O)NC(=O)[C@H](CO)NC(=O)[C@@H](NC(=O)[C@](C)(Cc1ccccc1F)NC(=O)[C@@H](NC(=O)CNC(=O)[C@H](CCC(N)=O)NC(=O)C(C)(C)NC(=O)[C@@H](N)Cc1ccc(O)cc1)[C@@H](C)O)[C@@H](C)O)[C@@H](C)CC)C(=O)N[C@@H](CCC(=O)O)C(=O)N[C@@H](Cc1ccc(O)cc1)C(=O)N[C@@H](CC(C)C)C(=O)N[C@@H](CC(C)C)C(=O)N[C@@H](CCC(=O)O)C(=O)N[C@H](C(=O)NCC(=O)N1CCC[C@H]1C(=O)N[C@@H](CO)C(=O)N[C@@H](CO)C(=O)NCC(=O)N[C@@H](C)C(=O)N1CCC[C@H]1C(=O)N1CCC[C@H]1C(=O)N1CCC[C@H]1C(=O)N[C@@H](CO)C(N)=O)[C@@H](C)O` [Compound 17]?
**A.** EC50 (3T3-L1 adipocytes; read-out: EC50 on mouse 3T3-L1 adipocyte, cAMP, at least 3 independent tests): 9.73 nM; Rel. A (Relative Activity) on 3T3-L1 adipocyte (3T3-L1 adipocytes; relative to GIP): 39.08%; EC50 (RIN-m5F cells; cAMP, at least 3 independent tests, read-out: EC50 on RIN-m5F rat pancreatic islet tumor cells): 0.122 nM; Rel. A (Relative Activity) on RIN-m5F (RIN-m5F cells; relative to GLP-1(7-37)): 845.90%
